Laboratory results published in patent US4088642A (priority 1973, dated 1978).

Experiment: Solubility in water

With “Polymeric Peroxide of trans-4,4'-Azobis(4-cyanovaleric acid) Terminated with Sodium Carboxylate Groups [Example 3]” the solubility in water was “partially soluble in water”.
